Test results from patent US20050042716A1, “Allergen inactivating method, allergen inactivating filter, air treating apparatus, virus inactivating agent, virus inactivating method, virus inactivating filter, air conditoning unit and air conditioner” (priority 2003, published 2005).

Protein sequences, listed by entry. Tags and fused reporters are not part of them. Residues count along the entry.
UniProt P43212, 46-433: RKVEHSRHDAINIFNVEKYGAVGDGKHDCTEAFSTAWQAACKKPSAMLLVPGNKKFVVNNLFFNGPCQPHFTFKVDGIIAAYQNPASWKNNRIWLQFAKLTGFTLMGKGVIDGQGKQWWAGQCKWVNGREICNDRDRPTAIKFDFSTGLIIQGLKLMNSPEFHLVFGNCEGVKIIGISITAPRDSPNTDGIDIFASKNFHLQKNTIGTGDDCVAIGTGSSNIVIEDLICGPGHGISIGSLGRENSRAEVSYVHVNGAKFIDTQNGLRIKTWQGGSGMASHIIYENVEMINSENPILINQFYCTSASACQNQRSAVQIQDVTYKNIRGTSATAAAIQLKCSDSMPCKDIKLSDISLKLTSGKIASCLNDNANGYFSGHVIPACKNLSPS

Assays:
cedar antigen Cryj-1 = cedar antigen Cryj-1 (Cryptomeria japonica, UniProt P18632); experiment: Electrophoresis of treated cedar antigen Cryj-1; format: biochemical; conditions: 10 μL 5 N sodium hydroxide per 10 μL Cj-1 solution, 40° C., 10 minutes
Protocol: (§1) Cedar antigens Cryj-1 (abbreviated as Cj-1 hereinafter) and Cryj-2 (abbreviated as Cj-2 hereinafter) were manufactured by Hayashibara Biochemical laboratories, Inc., and was used in a concentration of 100 μg/mL.
NuPage™ LDS sample buffer, NuPage™ sample reducing agent, and NuPage™ sample antioxidant, each manufactured by Invitrogen Co, were appropriately added according to the prescription of the manufacturer to prepare electrophoresis sample 7.
The electrophoresis samples 6 and 7 prepared by the methods in (1) and (2), respectively, were analyzed by electrophoresis. NuPage™ MOPS buffer kit for Bis-tris gel was used as an electrophoresis buffer solution, and 15 μL each of samples 6 and 7 prepared above were added in each lane. The protein was stained after electrophoresis using simply Blue™ SafeStain manufactured by Invitrogen Co. The gel was decolorized according to the prescription of the manufacturer.
Added in a 1.5 mL volume disposable tube were 10 μL of the Cj-1 solution and 10 μL of 5 N HCL solution, followed by incubating at 60° C. for 60 minutes. […]
The electrophoresis samples 12 and 13 prepared by the methods in (1) and (2), respectively, were analyzed by electrophoresis. […]
The electrophoresis samples 12 and 17 prepared by the methods in (1) and (2), respectively, were analyzed by electrophoresis. […]

cedar antigen Cryj-2 = cedar antigen Cryj-2 (Cryptomeria japonica, UniProt P43212); experiment: Electrophoresis of treated cedar antigen Cryj-2; format: biochemical; conditions: 10 μL 5 N sodium hydroxide per 10 μL Cj-2 solution, 40° C., 10 minutes
Protocol: as §1
(§2) Added in a 1.5 mL volume disposable tube were 22.5 μL of the Cj-2 solution and 2 μL of the pfu splution, and the solution was heated at 80° C. for 20 minutes, followed by adding 0.5 μL of the PMSF solution (final concentration of PMSF was 4 mM). NuPage™ LDS sample buffer, NuPage™ sample reducing agent, and NuPage™ sample antioxidant, each manufactured by Invitrogen Co, were appropriately added according to the prescription of the manufacturer to prepare electrophoresis sample 9.
The electrophoresis samples 8 and 9 prepared by the methods in (1) and (2), respectively, were analyzed by electrophoresis. NuPage™ MOPS buffer kit for Bis-tris gel was used as an electrophoresis buffer solution, and 15 μL each of samples 8 and 9 prepared above were added in each lane. […]
The electrophoresis samples 14 and 15 prepared by the methods in (1) and (2), respectively, were analyzed by electrophoresis. […]
The electrophoresis samples 14 and 18 prepared by the methods in (1) and (2), respectively, were analyzed by electrophoresis. […]

cedar extract = experiment: Electrophoresis of treated cedar extract (protein staining); format: biochemical; conditions: 10 μL 5 N sodium hydroxide per 10 μL cedar preparation, 40° C., 10 minutes
Cj-1 allergen = Cj-1 allergen (Cryptomeria japonica, UniProt P18632); experiment: Electrophoresis and Western blotting with Cj-1 antibody; format: biochemical, cedar; conditions: 5 N sodium hydroxide, 40° C., 10 minutes
Protocol: as §2, with “cedar preparation” for “Cj-2 solution”, “solution,” for “splution,”, “4.” for “9.”
Added in a 1.5 mL volume disposable tube were 27.0 μL of the cedar preparation and 3 μL (0.2 g/mL) of edible purified papain (manufactured by Nagase Chemtex Co.; abbreviated as papain hereinafter), and the solution was heated at 40° C. for 15 minutes, followed by adding 3 μL of an inhibitor cocktail solution. […]
The electrophoresis samples 1, 4 and 5 prepared by the methods in (1) to (3), respectively, were analyzed by electrophoresis. […]
The electrophoresis samples 6 and 7 prepared by the methods in (1) and (2), respectively, were analyzed by electrophoresis. […]
The electrophoresis samples 10, 11 and 16 prepared by the methods in (1), (2) and (3), respectively, were analyzed by electrophoresis.

SMILES: [Na+].[OH-] [alkali, sodium hydroxide]
- denaturation of Cj-1 protein (bands) (cedar antigen Cryj-1): most of the cedar antigen Cj-1 protein was denatured
- denaturation of Cj-2 protein (bands) (cedar antigen Cryj-2): most of the cedar antigen Cj-2 protein was denatured
- denaturation of cedar proteins (bands) (cedar extract): most of the protein derived from the cedar was denatured
- denaturation of Cj-1 protein (Western band) (Cj-1 allergen; Cj-1 solution): most of the cedar antigen Cj-1 protein was denatured
- denaturation of Cj-1 protein (Western band) (Cj-1 allergen; cedar extract): most of the cedar antigen Cj-1 protein was denatured
